Measurements as given in ChEMBL document CHEMBL3870325 (Bioorg Med Chem, 2017).

Species: Homo sapiens
Experiment: Selectivity ratio of IC50 for HER2 (unknown origin) to IC50 for wild-type EGFR (unknown origin)

Ratio IC50: > 100
SMILES: O=C(CCCCCn1cc(-c2ccc3ncnc(Nc4ccc(OCc5cccc(F)c5)c(Cl)c4)c3c2)nn1)NO
